From patent publication US10226478B2, “Dosage regimen for sapacitabine and decitabine in combination for treating acute myeloid leukemia” (Cyclacel Limited, priority 2011, dated 2019)

System: HL60 cells
Experiment: Cell cycle analysis (propidium iodide, flow cytometry)
Format: cell-based
Details: for cells in sub-G1: by 72 hours, azacitidine 128 nM (24 h pretreatment), CNDAC 133 nM
Protocol: For combination analysis, cells were treated with azacitidine for 24 hours followed by a further 48 or 72 hours with azacitidine and CNDAC. For controls, single agent treatments for each drug were also performed. At the end of the incubation, cells were harvested by washing twice in PBS and fixation in 70% ethanol and storage at −20° C. Prior to analysis cells were washed twice in PBS containing 1% BSA followed by staining with propidium iodide (50 μg/ml) and ribonuclease A (50 μg/ml) in PBS containing 0.1% Triton X-100 and the cell cycle profile was determined by flow cytometry.

Nc1ncn([C@@H]2O[C@H](CO)[C@@H](O)[C@H]2O)c(=O)n1 [azacitidine, 4-amino-1-β-D-ribofuranosyl-s-triazin-2(1H)-one] was tested, and the “cell cycle profile” value (azacitidine 128 nM alone, 72 and 96 hours exposure) was “accumulation of cells in sub-G1, G2/M, and >G2/M” and the “cells in sub-G1” value was 9%.
With N#C[C@H]1[C@H](O)[C@@H](CO)O[C@H]1n1ccc(N)nc1=O [CNDAC, 1-(2-C-Cyano-2-deoxy-β-D-arabino-pentafuranosyl)-cytosine] the “cell cycle profile” value (by 48 hours of CNDAC 133 nM) was “accumulation of cells in G2/M” and the “cells in sub-G1” value was 7%.
